pIC50: −log10 of the molar value.
Experiments:
hu i-20S β5i = hu i-20S β5i (Homo sapiens, UniProt P20618+P28062); assay: Dipeptide boronates IC50 vs hu i-20S β5i
hu c-20S β5c = hu c-20S β5c (Homo sapiens, UniProt P20618+P28074); assay: Dipeptide boronates IC50 vs hu c-20S β5c; details: read-out: IC50 c-20S β5i

Q: How did the pIC50 (hu i-20S β5i; read-out: IC50 i-20S β5i) turn out when `CC(=O)N[C@@H](Cc1ccccc1)C(=O)NC(Cc1cccc2ccccc12)B(O)O` (stereo partly drawn) was run?
A: Its pIC50 is 8.08.

Q: What about the Ratio (hu i-20S β5i; selectivity index hu i-20S β5i over hu c-20S β5c) of the same compound?
A: Its Ratio is 17.1.

Q: What about the pIC50 (hu c-20S β5c) of the same compound?
A: Its pIC50 is 6.84.

Source: patent USRE49816E1, “Dipeptides as inhibitors of human immunoproteasomes” (CORNELL UNIVERSITY, priority 2014, dated 2024)
